# Experimental data taken from BindingDB's records for doi:10.1021/acs.jmedchem.8b01296 (Daegu-Gyeongbuk Medical Innovation Foundation, 2019).
# Biological target: T1, Steroid hormone receptor ERR2 (Homo sapiens, UniProt O95718)
# T1 sequence (O95718 whole entry): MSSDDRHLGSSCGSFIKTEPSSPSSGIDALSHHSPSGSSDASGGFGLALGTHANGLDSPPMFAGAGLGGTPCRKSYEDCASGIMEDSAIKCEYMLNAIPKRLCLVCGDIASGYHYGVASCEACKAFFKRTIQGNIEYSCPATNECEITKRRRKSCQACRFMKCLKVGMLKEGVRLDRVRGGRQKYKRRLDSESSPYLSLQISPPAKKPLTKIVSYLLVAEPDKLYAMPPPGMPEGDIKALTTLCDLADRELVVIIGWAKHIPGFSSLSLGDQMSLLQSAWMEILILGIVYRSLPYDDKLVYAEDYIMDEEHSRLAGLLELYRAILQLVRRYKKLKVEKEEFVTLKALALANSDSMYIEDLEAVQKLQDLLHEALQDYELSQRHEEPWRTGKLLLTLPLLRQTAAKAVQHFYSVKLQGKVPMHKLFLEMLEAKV
# Experiment: Binding affinity to ERRbeta (unknown origin) using fluorescein-conjugated coactivator PGC-1alpha incubated for 1 hr by TR-FRET assay
smiles,measurement,value
CN(C)CCOc1ccc(/C(=C(/CCCO)c2ccccc2)c2ccc(O)cc2)cc1 [4-[(1Z)-1-{4-[2-(dimethylamino)ethoxy]phenyl}-5-hydroxy-2-phenylpent-1-en-1-yl]phenol],IC50,> 10 µM
